Results from patent publication US6555692B1, “Preparation and use of bifunctional molecules having DNA sequence binding specificity” (California Institute of Technology, priority 1996, dated 2003).

What was measured:
[1] = test system: 5′-AGGGAATCCCT-3′; assay: Quantitative DNase I footprint titration; conditions: 5′-AGGGAGTCCCT-3′ vs 5′-AGGGAATCCCT-3′
[2] = test system: 5′-TGTGAACA-3′; assay: DNase I footprint titrations; conditions: single base pair mismatch sequence
[3] = test system: 5′-TGTTAACA-3′; assay: DNase I footprint titrations; conditions: 8 bp match site
[4] = test system: 5′-TGTAACA-3′; assay: DNase I footprint titration; conditions: pH 7.0, 22° C.
[5] = test system: 5′-TGGAACA-3′; assay: DNase I footprint titration
[6] = test system: 5′-TGGACA-3′; assay: DNase I footprint titration; conditions: single base pair mismatch sequence; pH 7.0, 22° C.

Compound: CN(C)CCCNC(=O)CCNC(=O)c1cc(NC(=O)c2cc(NC(=O)c3cc(NC(=O)c4cc(NC(=O)CCNC(=O)c5cc(NC(=O)c6nc(NC(=O)c7nc(NC(=O)c8nccn8C)cn7C)cn6C)cn5C)cn4C)cn3C)cn2C)cn1C [ImImImPy-β-PyPyPyPy-β-Dp]
- lower affinity at β/β mismatch sequence [1]: at least 20 fold

Compound: CN(C)CCCNC(=O)CCNC(=O)c1cc(NC(=O)c2cc(NC(=O)CCNC(=O)c3cc(NC(=O)c4cc(NC(=O)c5nc(NC(=O)CCCNC(=O)c6cc(NC(=O)c7cc(NC(=O)CCNC(=O)c8cc(NC(=O)c9cc(NC(=O)c%10nccn%10C)cn9C)cn8C)cn7C)cn6C)cn5C)cn4C)cn3C)cn2C)cn1C [ImPyPy-β-PyPy-γ-ImPyPy-β-PyPy-β-Dp]
- Ka [2]: 1e+09 M⁻¹
- equilibrium association constant Ka [3]: 2e+10 M⁻¹

Compound: CN(C)CCCNC(=O)CCNC(=O)c1cc(NC(=O)c2cc(NC(=O)c3cc(NC(=O)c4cc(NC(=O)c5nc(NC(=O)CCCNC(=O)c6cc(NC(=O)c7cc(NC(=O)c8cc(NC(=O)c9cc(NC(=O)c%10nccn%10C)cn9C)cn8C)cn7C)cn6C)cn5C)cn4C)cn3C)cn2C)cn1C [ImPyPyPyPy-γ-ImPyPyPyPy-β-Dp]
- equilibrium association constant Ka [4]: 1.2e+10 M⁻¹
- reduction of affinity of the 5′-TGGAACA-3′ complex relative to ImImPyPyPy-γ-ImPyPyPyPy-β-Dp [5]: 5 fold
- loss in binding energy ([5]; 5′-TGGAACA-3′ complexes): ~1 kcal/mol
- Ka [6]: 6.8e+08 M⁻¹

Compound: CN(C)CCCNC(=O)CCNC(=O)c1cc(NC(=O)c2cc(NC(=O)c3cc(NC(=O)c4cc(NC(=O)c5cc(NC(=O)c6nc(NC(=O)CCCNC(=O)c7cc(NC(=O)c8cc(NC(=O)c9cc(NC(=O)c%10cc(NC(=O)c%11cc(NC(=O)c%12nccn%12C)cn%11C)cn%10C)cn9C)cn8C)cn7C)cn6C)cn5C)cn4C)cn3C)cn2C)cn1C [ImPyPyPyPyPy-γ-ImPyPyPyPyPy-β-Dp]
- Ka [2]: 2e+08 M⁻¹
- equilibrium association constant Ka [3]: 4e+09 M⁻¹
